## Yeast mating assay 2: variants of the scFv Ab-91

Reference: Engelhart et al. 2022, doi:10.1038/s41597-022-01779-4. File: FLAb, binding data.

Target peptide (SARS-CoV-2 spike, HR2 region): PDVDLGDISGINAS

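Phage display of a naive human antibody library on the peptide gave the parent. In library AAYL51, one, two or three CDR residues were substituted; doubles and triples were drawn at random. The scFvs were displayed on barcoded MATa yeast, the peptide on MATalpha yeast. Mating (16 h, 30 °C) was followed by selection of diploids and sequencing of their barcodes. Each replicate has its own calibration line, from reference interactions of the BCL2 family. Each pool was mated in three replicate cultures.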

Parent: Ab-91, a human scFv built as VL, a (GGGGS)3 linker, VH. Only the CDRs of the heavy chain vary.
VL: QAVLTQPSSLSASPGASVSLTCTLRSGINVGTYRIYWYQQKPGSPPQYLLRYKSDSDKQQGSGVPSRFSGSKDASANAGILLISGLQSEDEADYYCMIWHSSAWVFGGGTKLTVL
VH: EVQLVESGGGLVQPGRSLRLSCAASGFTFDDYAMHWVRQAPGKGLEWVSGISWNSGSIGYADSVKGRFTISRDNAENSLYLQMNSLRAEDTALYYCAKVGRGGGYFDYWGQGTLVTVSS

Variants are written as CDR1, CDR2 and CDR3 of the heavy chain (limits as in the source). Parent: GFTFDDYAMH, GISWNSGSIGYADSVK, VGRGGGYFDY.
Numbers give log10(Kd / nM), so 0 is 1 nM and 3 is 1 µM. Smaller is tighter.
Where no diploid with the target was found in that replicate, the entry reads "nd": below detection, most likely a poor binder, though not proof of it.
Background: pairings of library AAYL51 with three empty control strains gave a value in 21% of cases (median 4.54, 5th percentile 3.26). Values in that range, when seen in few replicates, are hard to tell from nonspecific mating. The control count says in how many pairings with the empty strains this scFv gave a signal, with their mean in brackets.
For reference, the parent read 1.86 as the reference entry and 0.88 as a member of this library.

| # | CDR-H1 | CDR-H2 | CDR-H3 | replicates, log10 nM | empty controls |
|---|---|---|---|---|---|
| 1 | GFTFDDYAMH | GISWNSGSINYARSVK | VGRGGGYFDY | nd 4.94 nd | 5/9 (4.83) |
| 2 | GFNFFDYAMH | GISWNSGSIGYADSVK | VGRGGGYFDH | 2.41 2.58 2.52 | 2/9 (4.74) |
| 3 | GFTTDDYAMH | GISQNSGSIGYADSVK | VGRGGGYHDY | 3.09 nd nd | 0/9 |
| 4 | GFTFDDYAMH | GISWNSNSMGYADSVG | VGRGGGYFDY | nd nd nd | 0/9 |
| 5 | GFTLDDYAKH | GISWNSGSIGYADSVK | VGRGGGYFWY | nd nd nd | 1/9 (3.87) |
| 6 | GFTFDDQAMH | GISWNSGSINYADSVK | VTRGGGYFDY | nd nd nd | 1/9 (3.47) |
| 7 | GFLFDDPAMH | GISWNSGSIGRADSVK | VGRGGGYFDY | 4.61 5.84 nd | 2/9 (3.93) |
| 8 | GFTFDDYAMH | GISWNSGSIGYADSVK | AGRGGAYFWY | 4.85 nd nd | 0/9 |
| 9 | GFTFDDYAMH | GPSWESGSIGGADSVK | VGRGGGYFDY | nd 5.91 nd | 2/9 (5.06) |
| 10 | GFTFSDYAMH | GISWNSGSIDRADSVK | VGRGGGYFDY | nd nd nd | 1/9 (4.03) |
| 11 | GFTFDDYAMH | GISKNSGSIGYGDSVK | VGAGGGYFDY | 2.88 nd nd | 0/9 |
| 12 | GFTFDDYAMH | GISWNNGSIGYADSWK | VGRGGGYFDE | nd 4.60 nd | 4/9 (4.80) |
| 13 | GFTFDDYAML | GISWNSGSAGYADSVK | VGRGGGYFDY | 4.80 nd 3.72 | 4/9 (4.12) |
| 14 | GFTFDDYAMH | GISWNSGSWGYADSVK | VGRGGGYFDH | 2.64 1.26 1.18 | 0/9 |
| 15 | GFTFDDTAMH | EISWNSGGIGYADSVK | VGRGGGYFDY | nd nd nd | 0/9 |
| 16 | GFTFDDYAMH | GISWNSGSKGYADSVK | VTRGGGYFDM | 4.32 6.41 5.35 | 3/9 (4.32) |
| 17 | GFTFDDYAQH | GILWNSGSIGYADSVK | VGRGAGYFDY | nd nd nd | 0/9 |
| 18 | GFTFDDYAMH | GITWCSGSIGYADSVK | VGRGGGKFDY | 4.68 nd nd | 0/9 |
| 19 | GFTFDDYAMH | GISWNSSSIGYADSVK | VGAGTGYFDY | nd nd nd | 0/9 |
| 20 | GFTLDDYAMH | GISWNSGSIGYADSVK | VERGGGYFDG | 4.43 nd nd | 0/9 |
| 21 | GFTFDDYTMH | GISENFGSIGYADSVK | VGRGGGYFDY | nd 5.06 nd | 7/9 (4.77) |
| 22 | CFHFDDYAMH | GISWNSISIGYADSVK | VGRGGGYFDY | 2.15 2.04 1.58 | 1/9 (3.85) |
| 23 | GFTFDDYAMH | GISWNSGSGGYGDSRK | VGRGGGYFDY | 5.16 6.45 nd | 2/9 (4.52) |
| 24 | GFTVDDYAMH | GISWNSGSIGYADSVK | VGHGGGYCDY | 3.70 nd nd | 2/9 (4.23) |
| 25 | GFTFDDMAMH | GISWNSGSIGYADSVK | IGRGGRYFDY | 2.63 2.10 1.88 | 0/9 |
| 26 | NFTFMDYAMH | GISWNWGSIGYADSVK | VGRGGGYFDY | 4.54 3.61 nd | 1/9 (4.12) |
| 27 | GLTFDDYAMH | GIYWNSGSIGYADSVK | QGRGGGYFDY | nd nd nd | 0/9 |
| 28 | GFTFDDYAMH | GISWNSGSIGYKDSVK | VRRGGGYQDY | nd 6.29 nd | 4/9 (4.05) |
| 29 | GFTFDDYAMN | GISWNSGSILYADSVK | VGRGGGYFDH | 4.93 5.25 nd | 2/9 (4.39) |
| 30 | GFTHQDYAMH | GISWNSGSIGYADSVK | VGRGGGYTDY | 5.31 6.35 5.42 | 6/9 (4.59) |
| 31 | GFTFDDYAMH | GISWNSGLINYADSVK | VGRGGGYKDY | nd nd nd | 4/9 (4.39) |
| 32 | GFTFNDYAMA | GISWNSGSIRYADSVK | VGRGGGYFDY | nd nd nd | 3/9 (4.29) |
| 33 | GFTFDDYCMH | GDSWNSGSIGYADSVK | VGRYGGYFDY | 4.11 nd 3.37 | 2/9 (4.29) |
| 34 | GHTFDDYAMH | RISWNSGSIGYADSVK | VGRGGGYFDY | nd nd nd | 0/9 |
| 35 | GFTSDDYAMW | GISWNSGSIGYADSVK | VGWGGGYFDY | 5.11 5.66 5.16 | 3/9 (4.63) |
| 36 | MFTFDDYAMH | GISWNSGSIGYADSVK | VGDGGGYKDY | 4.18 nd 3.57 | 1/9 (4.45) |
| 37 | GFTFHDYAMH | GISWNSGSIGYADSVK | VGRGGGYFDY | 0.83 0.76 0.17 | 4/9 (4.95) |
| 38 | GFTFDDYAMH | GISWNTGSIFYADAVK | VGRGGGYFDY | nd 6.32 5.16 | 4/9 (5.02) |
| 39 | GFTFDDYAMT | GISWTSGSIGYADSVK | VGRGSGYFDY | nd nd nd | 0/9 |
| 40 | GFTFDDYAMH | KISWNSGSIGYADSVK | VGRGLEYFDY | nd nd 4.16 | 2/9 (5.02) |
| 41 | GFTFDDYASH | GISWNSGSIGYADSVK | VGRGGGYFVA | 4.23 nd 4.40 | 1/9 (4.20) |
| 42 | GQTFQDYAMH | GISWNSGSIGYADSVK | VGRGQGYFDY | nd nd nd | 2/9 (3.88) |
| 43 | GFTFDDYAMH | GISWNSGSIGYGDSVK | VGRWGGYFWY | 1.27 1.17 0.42 | 0/9 |
| 44 | GFTFDDYAMA | GMSWNSGSIGYADSVK | VGRGGGYFDY | nd 6.12 nd | 1/9 (4.33) |

Repeated from above, the 4 best binders with a signal in all replicates:

{"CDR-H1": "GFTFHDYAMH", "CDR-H2": "GISWNSGSIGYADSVK", "CDR-H3": "VGRGGGYFDY", "replicates, log10 nM": "0.83 0.76 0.17", "empty controls": "4/9 (4.95)"}
{"CDR-H1": "GFTFDDYAMH", "CDR-H2": "GISWNSGSIGYGDSVK", "CDR-H3": "VGRWGGYFWY", "replicates, log10 nM": "1.27 1.17 0.42", "empty controls": "0/9"}
{"CDR-H1": "GFTFDDYAMH", "CDR-H2": "GISWNSGSWGYADSVK", "CDR-H3": "VGRGGGYFDH", "replicates, log10 nM": "2.64 1.26 1.18", "empty controls": "0/9"}
{"CDR-H1": "CFHFDDYAMH", "CDR-H2": "GISWNSISIGYADSVK", "CDR-H3": "VGRGGGYFDY", "replicates, log10 nM": "2.15 2.04 1.58", "empty controls": "1/9 (3.85)"}